B1: Mannose-binding protein C (Homo sapiens), P11226 (parent)
chain: MSLFPSLPLLLLSMVAASYSETVTCEDAQKTCPAVIACSSPGINGFPGKDGRDGTKGEKGEPGQGLRGLQGPPGKLGPPGNPGPSGSPGPKGQKGDPGKSPDGDSSLAASERKALQTEMARIKKWLTFSLGKQVGNKFFLTNGEIMTFEKVKALCVKFQASVATPRNAAENGAIQNLIKEEAFLGITDEKTEGQFVDLTGNRLTYTNWNEGEPNNAGSDEDCVLLLKNGQWNDVPCSTSHLAVCEFPI

Variants of: B1
Details: with calr_human CALR

Row | Variant | effect of a mutation on the interaction
1 | MSLFPSLPLLLLSMVAASYSETVTCEDAQKTCPAVIACSSPGINGFPGKDGRDGTKGEKGEPGQGLRGLQGPPGALGPPGNPGPSGSPGPKGQKGDPGKSPDGDSSLAASERKALQTEMARIKKWLTFSLGKQVGNKFFLTNGEIMTFEKVKALCVKFQASVATPRNAAENGAIQNLIKEEAFLGITDEKTEGQFVDLTGNRLTYTNWNEGEPNNAGSDEDCVLLLKNGQWNDVPCSTSHLAVCEFPI [K75A] | disrupting interaction strength
2 | MSLFPSLPLLLLSMVAASYSETVTCEDAQKTCPAVIACSSPGINGFPGKDGRDGTKGEKGEPGQGLRGLQGPPGELGPPGNPGPSGSPGPKGQKGDPGKSPDGDSSLAASERKALQTEMARIKKWLTFSLGKQVGNKFFLTNGEIMTFEKVKALCVKFQASVATPRNAAENGAIQNLIKEEAFLGITDEKTEGQFVDLTGNRLTYTNWNEGEPNNAGSDEDCVLLLKNGQWNDVPCSTSHLAVCEFPI [K75E] | disrupting interaction strength
